Data: patent publication US10144715B2, “Piperazine derivatives as liver X receptor modulators” (priority 2014, dated 2018)
Where two headings read alike, the source gives them in different places.

The chains behind the UniProt entries cited, without tags or fusion partners. Residues count along the entry.
UniProt P55055, 222-460 limits assumed: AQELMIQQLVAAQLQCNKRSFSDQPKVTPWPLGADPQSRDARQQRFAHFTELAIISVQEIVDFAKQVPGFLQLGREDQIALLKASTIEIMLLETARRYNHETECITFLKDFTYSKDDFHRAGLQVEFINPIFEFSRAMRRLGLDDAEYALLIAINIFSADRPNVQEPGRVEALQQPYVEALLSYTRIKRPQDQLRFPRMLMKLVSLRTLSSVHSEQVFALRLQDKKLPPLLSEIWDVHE
UniProt Q13133, 209-447: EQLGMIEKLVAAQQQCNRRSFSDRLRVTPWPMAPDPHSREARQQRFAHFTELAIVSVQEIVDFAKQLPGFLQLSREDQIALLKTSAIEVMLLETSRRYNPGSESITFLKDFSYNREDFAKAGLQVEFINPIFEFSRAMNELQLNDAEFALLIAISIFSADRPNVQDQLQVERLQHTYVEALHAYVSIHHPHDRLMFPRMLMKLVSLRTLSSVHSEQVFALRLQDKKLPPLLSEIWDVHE

Legend:
[1] = target: Gal4 DNA binding domain fused to the LBD of LXRβ in HEK293 cells (Homo sapiens (Human), UniProt P55055); assay: cell-based; details: for Cell LXRβ efficacy: agonist mode
LXR β LBD protein = LXR β LBD protein (Homo sapiens (Human), UniProt P55055); assay: biochemical; format: biochemical
LXR α LBD protein = LXR α LBD protein (Homo sapiens (Human), UniProt Q13133); assay: Human LXRα coactivator recruitment FRET assay, agonist mode; format: biochemical
[2] = agonist mode, read-out: FRET LXRβ EC50

| Compound | EC50 [1] | FRET LXRβ efficacy (LXR β LBD protein; agonist mode) | EC50 (LXR β LBD protein; [2]) | Cell LXRβ efficacy [1] | EC50 (LXR α LBD protein) | FRET LXRβ efficacy (LXR β LBD protein; Biological Test Example 3, agonist mode) | EC50 (LXR β LBD protein; Biological Test Example 3, agonist mode, read-out: FRET LXRβ EC50) | EC50 (LXR β LBD protein) |
| --- | --- | --- | --- | --- | --- | --- | --- | --- |
| CC(C)OC(=O)N1CCN(c2cccc(S(C)(=O)=O)c2)CC1c1ccccc1 (stereo not shown) [5-8, isopropyl 4-(3-(methylsulfonyl)phenyl)-2-phenylpiperazine-1-carboxylate] | > 20 µM | 24% | 0.732 µM | – | – | – | – | – |
| CS(=O)(=O)c1cccc(N2CCN(Cc3ccc(C(F)(F)F)nc3)C(c3ccc(Br)cc3)C2)c1 (stereo not shown) [46-61, 2-(4-bromophenyl)-4-(3-(methylsulfonyl)phenyl)-1-((6-(trifluoromethyl)pyridin-3-yl)methyl)piperazine] | > 20 µM | 44% | – | – | – | – | – | – |
| CS(=O)(=O)c1cc(N2CCN(Cc3ccc(C(F)(F)F)nc3)C(c3ccccc3)C2)ccc1F (stereo not shown) [46-52, 4-(4-fluoro-3-(methylsulfonyl)phenyl)-2-phenyl-1-((6-(trifluoromethyl)pyridin-3-yl)methyl)piperazine] | 2.11 µM | 42% | 1.23 µM | 20% | – | – | – | – |
| CC(C)[C@@H]1CN(c2ccc(C#N)c(S(C)(=O)=O)c2)CCN1c1ccc(C(F)(F)F)cn1 [7-37, (R)-4-(3-isopropyl-4-(5-(trifluoromethyl)pyridin-2-yl)piperazin-1-yl)-2-(methylsulfonyl)benzonitrile] | 0.517 µM | 89% | 0.016 µM | 86% | – | – | – | – |
| CS(=O)(=O)c1cccc(N2CCN(Cc3ccc(C(F)(F)F)nc3)C(c3ccc(F)cc3)C2)c1 (stereo not shown) [46-51, 2-(4-fluorophenyl)-4-(3-(methylsulfonyl)phenyl)-1-((6-(trifluoromethyl)pyridin-3-yl)methyl)piperazine] | 1.31 µM | 51% | 0.45 µM | 28% | – | – | – | – |
| CC(C)[C@@H]1CN(c2ccc(C#N)c(S(C)(=O)=O)c2)CCN1c1cccc(C(F)(F)F)n1 [7-38, (R)-4-(3-isopropyl-4-(6-(trifluoromethyl)pyridin-2-yl)piperazin-1-yl)-2-(methylsulfonyl)benzonitrile] | 0.573 µM | 109% | 0.043 µM | 70% | – | – | – | – |
| CS(=O)(=O)c1cc(N2CCN(Cc3ccc(C(F)(F)F)c(Cl)c3)C(c3ccccc3)C2)ccc1CO (stereo not shown) [47-4, (4-(4-(3-chloro-4-(trifluoromethyl)benzyl)-3-phenylpiperazin-1-yl)-2-(methylsulfonyl)phenyl)methanol] | 0.515 µM | 91% | 0.022 µM | 98% | – | – | – | – |
| CS(=O)(=O)c1cccc(N2CCN(Cc3cccnc3)C(c3ccccc3)C2)c1 (stereo not shown) [46-39, 4-(3-(methylsulfonyl)phenyl)-2-phenyl-1-(pyridin-3-ylmethyl)piperazine] | > 20 µM | – | > 50 µM | – | – | – | – | – |
| CC(C)[C@@H]1CN(c2ccc(C#N)c(S(C)(=O)=O)c2)CCN1c1cc(C(F)(F)F)ccn1 [7-39, (R)-4-(3-isopropyl-4-(4-(trifluoromethyl)pyridin-2-yl)piperazin-1-yl)-2-(methylsulfonyl)benzonitrile] | 0.544 µM | 115% | 0.025 µM | 64% | – | – | – | – |
| CC(C)(C)OC(=O)N1CCN(c2cccc(S(C)(=O)=O)c2)C[C@@H]1c1ccccc1 [1-6, tert-butyl (S)-4-(3-(methylsulfonyl)phenyl)-2-phenylpiperazine-1-carboxylate] | > 20 µM | 25% | 12.5 µM | – | – | – | – | – |
| Cc1cc(C)nc(N2CCN(c3cccc(S(C)(=O)=O)c3)C[C@H]2C(C)C)n1 [Cpd No 7-3, (R)-2-(2-isopropyl-4-(3-(methylsulfonyl)phenyl)piperazin-1-yl)-4,6-dimethylpyrimidine] | 1.13 µM | 51% | 0.048 µM | 20% | – | – | – | – |
| CC(C)(C)OC(=O)N1CCN(c2cccc(S(C)(=O)=O)c2)CC1c1ccc(Br)cc1 (stereo not shown) [1-12, tert-butyl 2-(4-bromophenyl)-4-(3-(methylsulfonyl)phenyl)piperazine-1-carboxylate] | 0.948 µM | 72% | – | 37% | – | – | – | – |
| CC(C)C1CN(c2ccc(C#N)c(S(C)(=O)=O)c2)CCN1CC1CCC(C(F)(F)F)CC1 [50-2, 4-((S)-3-isopropyl-4-(((1r,4S)-4-(trifluoromethyl)cyclohexyl)methyl)piperazin-1-yl)-2-(methylsulfonyl)benzonitrile] | 0.542 µM | – | – | – | – | – | – | – |
| COC(=O)c1cnc(N2CCN(c3cccc(S(C)(=O)=O)c3)C[C@H]2C(C)C)nc1 [7-9, methyl (R)-2-(2-isopropyl-4-(3-(methylsulfonyl)phenyl)piperazin-1-yl)pyrimidine-5-carboxylate] | 0.64 µM | 81% | 0.056 µM | 24% | – | – | – | – |
| CS(=O)(=O)c1cccc(N2CCN(c3ccc(C(F)(F)F)cn3)[C@@H](c3ccccc3)C2)c1 [7-40, (S)-4-(3-(methylsulfonyl)phenyl)-2-phenyl-1-(5-(trifluoromethyl)pyridin-2-yl)piperazine] | > 20 µM | 48% | 4.36 µM | – | – | – | – | – |
| CS(=O)(=O)c1cccc(N2CCN(Cc3cccc(C(F)(F)F)c3)C(c3ccccc3)C2)c1 (stereo not shown) [46-13, 4-(3-(methylsulfonyl)phenyl)-2-phenyl-1-(3-(trifluoromethyl)benzyl)piperazine] | > 20 µM | 21% | 0.547 µM | – | – | – | – | – |
| CC(C)(C)OC(=O)N1CCN(c2cccc(S(C)(=O)=O)c2)C[C@H]1C(C)(C)O [6-1, tert-butyl (S)-2-(2-hydroxypropan-2-yl)-4-(3-(methylsulfonyl)phenyl)piperazine-1-carboxylate] | 4.34 µM | 78% | 2.65 µM | 40% | – | – | – | – |
| benzyl 4-(3-(methylsulfonyl)phenyl)-2-phenylpiperazine-1-carboxylate [1-14] | – | – | 0.192 µM | – | – | – | – | – |
| CC(C)[C@@H]1CN(c2ccc(C#N)c(S(C)(=O)=O)c2)CCN1C(=O)OC(C)(C)C [Cpd No 3-1, tert-butyl (R)-4-(4-cyano-3-(methylsulfonyl)phenyl)-2-isopropylpiperazine-1-carboxylate] | 2.31 µM | 75% | 0.618 µM | 20% | – | – | – | – |
| CS(=O)(=O)c1cccc(N2CCN(Cc3ccc(C(F)(F)F)nc3)C(c3ccccc3Br)C2)c1 (stereo not shown) [46-60, 2-(2-bromophenyl)-4-(3-(methylsulfonyl)phenyl)-1-((6-(trifluoromethyl)pyridin-3-yl)methyl)piperazine] | 1.27 µM | 74% | – | 25% | – | – | – | – |
| CS(=O)(=O)c1cccc(N2CCN(Cc3ccc(C(F)(F)F)o3)[C@H](c3ccccc3)C2)c1 [46-65, (R)-4-(3-(methylsulfonyl)phenyl)-2-phenyl-1-((5-(trifluoromethyl)furan-2-yl)methyl)piperazine] | – | – | – | – | > 50 µM | – | – | – |
| CS(=O)(=O)c1cccc(N2CCN(Cc3ccccc3)C(c3ccccc3)C2)c1 (stereo not shown) [46-4, 1-benzyl-4-(3-(methylsulfonyl)phenyl)-2-phenylpiperazine] | > 20 µM | – | > 50 µM | – | – | – | – | – |
| CC(C)[C@@H]1CN(c2ccc(C(N)=O)c(S(C)(=O)=O)c2)CCN1C(=O)OC(C)(C)C [4-1, tert-butyl (R)-4-(4-carbamoyl-3-(methylsulfonyl)phenyl)-2-isopropylpiperazine-1-carboxylate] | 3.01 µM | 90% | 2.41 µM | 20% | – | – | – | – |
| Cc1ccc(CN2CCN(c3cccc(S(C)(=O)=O)c3)CC2c2ccccc2)cn1 (stereo not shown) [46-40, 1-((6-methylpyridin-3-yl)methyl)-4-(3-(methylsulfonyl)phenyl)-2-phenylpiperazine] | > 20 µM | 23% | 17.7 µM | – | – | – | – | – |
| CS(=O)(=O)c1cccc(N2CCN(CC3CCN(CC(F)(F)F)CC3)[C@H](c3ccccc3)C2)c1 (single isomer, unassigned) [48-51] | > 20 µM | – | – | – | – | 65% | 4.85 µM | – |
| CS(=O)(=O)c1cc(N2CCN(Cc3ccc(C(F)(F)F)nc3)C(c3ccccc3)C2)ccc1C(N)=O (stereo not shown) [46-58, 2-(methylsulfonyl)-4-(3-phenyl-4-((6-(trifluoromethyl)pyridin-3-yl)methyl)piperazin-1-yl)benzamide] | 3.44 µM | 36% | 2.77 µM | 15% | – | – | – | – |
| CC(C)[C@@H]1CN(c2cccc(S(C)(=O)=O)c2)CCN1c1ncc(Br)cn1 [7-16, (R)-5-bromo-2-(2-isopropyl-4-(3-(methylsulfonyl)phenyl)piperazin-1-yl)pyrimidine] | 0.295 µM | 92% | 0.016 µM | 62% | – | – | – | – |
| CS(=O)(=O)c1cccc(N2CCN(Cc3ccc(C(F)(F)F)c(Cl)c3)[C@@H](Cc3ccccc3)C2)c1 [Cpd No 45-1, (S)-2-benzyl-1-(3-chloro-4-(trifluoromethyl)benzyl)-4-(3-(methylsulfonyl)phenyl)piperazine] | 1.17 µM | – | – | 42% | 0.627 µM | – | – | – |
| CS(=O)(=O)c1cccc(N2CCN(Cc3ccccc3C(F)(F)F)C(c3ccccc3)C2)c1 (stereo not shown) [46-12, 4-(3-(methylsulfonyl)phenyl)-2-phenyl-1-(2-(trifluoromethyl)benzyl)piperazine] | > 20 µM | – | > 50 µM | – | – | – | – | – |
| CS(=O)(=O)c1cccc(N2CCN(Cc3ccc(C(F)(F)F)c(Cl)c3)[C@H](Cc3ccccc3)C2)c1 [46-33, (R)-2-benzyl-1-(3-chloro-4-(trifluoromethyl)benzyl)-4-(3-(methylsulfonyl)phenyl)piperazine] | 1.68 µM | 54% | – | 36% | – | – | – | 0.649 µM |
